The target of one assay is HLA-A*02:01 (Homo sapiens, UniProt P04439, D140Y/D185E/D98H/E176V/E277Q/G131W/G231S/I119V/I121R/I166T/I218V/L300P/L318F/N151K/N90K/P208A/P217A/Q86G/Q94H/R138H/R169H/T345S). The experiment in a line: in vitro HLA-binding assay (UV-induced peptide exchange, HLA class I ELISA). The note with it: FIG. 3B. On the technique in general: An ELISA detects its analyte on a solid surface through an enzyme-linked reagent.

Assay [1] deals with PBMCs from donors who have previously resolved HBV. The experiment in a line: immunogenicity of HLA-binding peptides: IFNγ ELISA on expanded PBMCs. In kind it is cell-based, human. The note with it: PBMCs of HBV resolvers expanded 14 days with peptide pools, single peptide re-stimulation 48 hr at 10 μg/ml.

Consider “FLPSDFFPSV [Peptide C18-27, reference compound]”, for which the “binding compared with the positive control” value with HLA-A*02:01 is “scored even better than the positive control”. For the same sequence, in assay [1], the IFNγ production entry is reported as “IFNγ production was detected”.

The record behind these values is patent publication US12709634B2, “Treatment of diseases related to hepatitis B virus” (priority 2019, dated 2026).
